Our source for the IC50 values is ChEMBL document CHEMBL1152589, “Identification and characterization of novel sirtuin inhibitor scaffolds” (Bioorg Med Chem, 2009).

The target in this assay is T1, NAD-dependent protein deacetylase sirtuin-1 (Homo sapiens, UniProt Q96EB6).
T1 sequence (Q96EB6 whole entry): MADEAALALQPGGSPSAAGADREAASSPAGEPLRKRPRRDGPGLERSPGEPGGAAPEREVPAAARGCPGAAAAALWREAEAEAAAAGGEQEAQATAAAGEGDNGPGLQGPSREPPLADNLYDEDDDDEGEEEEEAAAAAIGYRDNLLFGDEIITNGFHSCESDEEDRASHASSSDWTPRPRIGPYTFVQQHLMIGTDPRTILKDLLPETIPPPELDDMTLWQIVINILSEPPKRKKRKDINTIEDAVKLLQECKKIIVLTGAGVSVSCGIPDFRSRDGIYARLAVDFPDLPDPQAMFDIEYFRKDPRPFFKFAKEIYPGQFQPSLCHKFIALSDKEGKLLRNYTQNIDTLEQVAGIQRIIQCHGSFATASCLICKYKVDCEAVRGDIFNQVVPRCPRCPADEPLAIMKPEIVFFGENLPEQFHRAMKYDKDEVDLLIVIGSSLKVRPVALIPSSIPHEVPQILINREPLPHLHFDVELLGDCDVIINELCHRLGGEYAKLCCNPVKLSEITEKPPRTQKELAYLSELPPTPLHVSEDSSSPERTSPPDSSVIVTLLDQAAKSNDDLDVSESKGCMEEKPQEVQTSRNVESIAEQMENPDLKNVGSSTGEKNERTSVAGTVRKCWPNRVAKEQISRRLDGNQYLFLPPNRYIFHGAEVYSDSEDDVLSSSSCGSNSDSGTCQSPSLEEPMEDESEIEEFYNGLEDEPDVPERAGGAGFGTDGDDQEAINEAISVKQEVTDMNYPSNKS
Nature of the assay: Inhibition of human full length SIRT1 expressed in DE3 cells by fluorimetric assay. The assay is classed as cell-based.

`O=C1CCc2c(ccc3ccccc23)O1` [SPLITOMICIN]: the IC50 (in general, the point on the concentration scale where inhibition reaches its midpoint) is over 500 µM.
The result for `Cn1cc(C2=C(c3cn(CCCSC(=N)N)c4ccccc34)C(=O)NC2=O)c2ccccc21` [BISINDOLYLMALEIMIDE IX] reads 25 µM.
